Test results published in publication PMC2877875, “Characterisation of the bifunctional dihydrofolate synthase–folylpolyglutamate synthase from Plasmodium falciparum; a potential novel target for antimalarial antifolate inhibition” (Molecular and Biochemical Parasitology, 2010).

Tested on: 5,6,7,8-tetrahydrofolate
Experiment: purified protein, by the assay type
Settings: other: Michaelis–Menten fit; 37.0 °C

## PfDHFS–FPGS (FPGS activity) (Plasmodium falciparum 3D7)
  Km: 0.96 µM
